Molecular target: Melanocortin receptor 4 (Homo sapiens, UniProt P32245)
Test: Antagonist activity at human MC4R expressed in CHO cells assessed as decrease in alpha-MSH induced cAMP level by measuring equilibrium binding constant preincubated for 30 mins followed by alpha-MSH addition measured after 30 mins by HTRF method
Assay type: functional, cell-based
Settings: filed as antagonist, time 60.0 min

Chains of the proteins cited; added tags and fusions are not shown.
UniProt P32245, whole entry: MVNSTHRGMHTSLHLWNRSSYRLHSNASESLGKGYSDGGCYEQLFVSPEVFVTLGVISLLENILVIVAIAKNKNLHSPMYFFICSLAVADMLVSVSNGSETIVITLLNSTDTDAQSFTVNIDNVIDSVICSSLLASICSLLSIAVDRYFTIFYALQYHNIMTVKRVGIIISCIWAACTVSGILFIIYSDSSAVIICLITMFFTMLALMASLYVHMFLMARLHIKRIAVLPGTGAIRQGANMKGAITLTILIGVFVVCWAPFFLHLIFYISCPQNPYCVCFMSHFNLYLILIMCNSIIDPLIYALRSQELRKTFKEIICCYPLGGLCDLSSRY

`COc1cc([C@@H](C)C(=O)N2CC[C@@]3(CCc4cc(-c5ncccn5)c(C)nc4N3)C2)c(F)cn1` was tested, and the Kb was 0.72 nM.
For `COc1cc([C@@H](C)C(=O)N2CC[C@@]3(CCc4cc(-c5ncccn5)c(C)nc4N3)C2)c(Cl)cn1`, the Kb was 0.051 nM.
